{"sequences": {"note": "Chains of the proteins cited; added tags and fusions are not shown.", "UniProt Q9Y243, whole entry, species assumed": "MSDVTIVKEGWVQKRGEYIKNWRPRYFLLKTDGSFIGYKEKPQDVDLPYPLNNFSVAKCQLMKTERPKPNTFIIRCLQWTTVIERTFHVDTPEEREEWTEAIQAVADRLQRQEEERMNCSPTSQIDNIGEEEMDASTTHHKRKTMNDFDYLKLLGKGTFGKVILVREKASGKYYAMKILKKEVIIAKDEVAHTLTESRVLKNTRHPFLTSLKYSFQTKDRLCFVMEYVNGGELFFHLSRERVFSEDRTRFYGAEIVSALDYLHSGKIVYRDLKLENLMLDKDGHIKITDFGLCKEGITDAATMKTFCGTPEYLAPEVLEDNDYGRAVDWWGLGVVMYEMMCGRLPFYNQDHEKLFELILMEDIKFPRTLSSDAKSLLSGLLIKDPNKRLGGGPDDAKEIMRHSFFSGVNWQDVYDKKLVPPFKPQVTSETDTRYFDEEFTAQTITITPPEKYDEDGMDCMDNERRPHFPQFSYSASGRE"}, "source": "patent US12404348B2", "about": "“Bifunctional chimeric molecules for labeling of kinases with target binding moieties and methods of use thereof” (The Brigham and Women's Hospital, Inc., priority 2021, dated 2025)", "origin": "cited, not measured here", "biological_target": "AKT3 (Homo sapiens, UniProt Q9Y243)", "data": [{"smiles": "Nc1ncccc1-c1nc2cc(-c3cccnc3)cnc2n1-c1ccc(CNC(=O)c2cccc(F)c2)cc1", "note": "[Compound 12g]", "values": [{"measurement": "Akt3 ΔTm", "result": 1.5, "unit": "°C"}]}]}
